According to ChEMBL document CHEMBL3244115 (1979):

Tests used:
B16 [1] = assay: Antitumor activity against mouse B16 cells allografted in BDF mouse assessed as increase in life span at 400 mg/kg, ip administered for 9 days relative to untreated control; conditions: route intraperitoneal
B16 [2] = assay: Antitumor activity against mouse B16 cells allografted in ip dosed BDF mouse assessed as 25% increase in life span administered for 9 days
B16 [3] = assay: Antitumor activity against mouse B16 cells allografted in BDF mouse assessed as increase in life span at 50 mg/kg, ip administered for 9 days relative to untreated control; conditions: route intraperitoneal
B16 [4] = assay: Antitumor activity against mouse B16 cells allografted in BDF mouse assessed as increase in life span at 25 mg/kg, ip administered for 9 days relative to untreated control; conditions: route intraperitoneal
B16 [5] = assay: Antitumor activity against mouse B16 cells allografted in BDF mouse assessed as increase in life span at 6.25 mg/kg, ip administered for 9 days relative to untreated control; conditions: route intraperitoneal
B16 [6] = assay: Antitumor activity against mouse B16 cells allografted in BDF mouse assessed as increase in life span at 100 mg/kg, ip administered for 9 days relative to untreated control; conditions: route intraperitoneal

Compound	log(1/C) (B16 [2])	T/C (B16 [3]) [%]	other results
ClCCN(CCCl)c1ccc(Cl)cc1	2.74	–	T/C (B16 [1]): 108%
CCOc1ccc(N(CCCl)CCCl)cc1	4.87	197	–
Cc1ccc(N(CCCl)CCCl)cc1	3.86	137	–
COc1ccc(N(CCCl)CCCl)cc1	4.68	–	T/C (B16 [4]): 163%
Nc1cc(N)cc(N(CCCl)CCCl)c1	4.45	–	T/C (B16 [5]): 131%
CCCCc1ccc(N(CCCl)CCCl)cc1	3.44	–	T/C (B16 [6]): 125%
